Our source for the survival during administration values is patent US9907837B2, “Composition for preventing or treating cachexia” (GemVax & KAEL Co., Ltd., priority 2012, dated 2018).

For series [1], the system named is CIA (collagen induced arthritis) mouse. Nature of the series: CIA (collagen induced arthritis) mouse model, first experiment. The format is in vivo, DBA/1J mouse. The conditions noted are these: 1 nM or 10 nM, 100 μl intradermal. As to the method:
In order to find effectiveness of the peptide according to the present invention to rheumatoid arthritis (RA), CIA (collagen induced arthritis) mouse were used to confirmation.
(§1) In the first and second experiment mentioned below, lyophilized and formed in powder PEP1 according to the Example 1 was dissolved in 0.9% saline solution and was used. After doing amendment of the purity (purity: 97.3%, content: 85.3%) of PEP1, the solution for injection was made in each concentration with 0.9% saline solution as an additive just before an administration. Every dose was administered by the solution in an amount of 100 μl.
The first induction was done to 38 mice at day 1 by using 5-weeks male DBA/1J mouse (Orient Bio Inc., Korea), and the mice were divided into the preventive group consisting of 16 mice administered by a peptide composition before CIA inducement (i.e. 8 mice of 1 nM, 100 μl (around 0.2 ng dose) and 8 mice of 10 nM, 100 μl (around 2 ng dose)), the therapeutic group consisting of 16 mice administered by a peptide composition after CIA inducement (i.e. 8 mice of 1 nM, 100 μl and 8 mice of 10 nM, 100 μl), and the PBS treatment group consisting of 6 mice.
To the preventive group, the treatment was done by intradermal injection in each suitable concentration at day 2, 4, 6, 21, 23, 25, 35, 37 and 39. […]

The test system is the same in series [2]. The experiment in a line: CIA (collagen induced arthritis) mouse model, second experiment. The format is in vivo. To be noted: second experiment, 0.2, 1, 2, 5 nM, 100 μl intradermal. As to the method: as §1
Like the first experiment, the first inducement was done to 38 mice at day 1 by using 5-week mice, the mice were divided into the group consisting of 32 mice administered by a peptide composition before CIA inducement (8 mice of 0.2 nM, 100 μl (i.e. around 0.04 ng); 8 mice of 1 nM, 100 μl (around 0.2 ng dose); 8 mice of 2 nM, 100 μl (i.e. around 0.4 ng); 8 mice of 5 nM, 100 μl (i.e. around 1 ng)) and the PBS treatment group consisting of 6 mice.
The second inducement was done at day 21, and the treatment was done by intradermal injection in each suitable concentration to each group at day 23, 25 and 27 (see FIG. 2).
The assessment of rheumatoid arthritis index was done at from the day of second inducement to the day 42 per every two days and the joint and serum was collected after sacrificing all mice at day 42.

Turning to `CC[C@H](C)[C@H](NC(=O)[C@H](Cc1ccccc1)NC(=O)[C@H](CCCNC(=N)N)NC(=O)[C@H](CC(C)C)NC(=O)[C@H](CCCNC(=N)N)NC(=O)[C@H](CO)NC(=O)[C@@H](NC(=O)[C@H](CC(C)C)NC(=O)[C@H](CC(C)C)NC(=O)[C@H](C)NC(=O)[C@@H]1CCCN1C(=O)[C@H](CCCNC(=N)N)NC(=O)[C@H](C)NC(=O)[C@@H](N)CCC(=O)O)[C@@H](C)O)C(=O)N1CCC[C@H]1C(=O)N[C@@H](CCCCN)C(=O)O` [PEP 1], the survival during administration result in series [1] and in series [2] was “all mice were survived” each time.
